Values of other authors, collected in US20070237810A1, “Biocidal fibrous and film materials comprising silver and chlorite ions” (published 2007).

Settings: solid state; stable below this temperature in the absence of acid

Substance: silver chlorite
- temperature above which it slowly disproportionates: above 85 °C
